Assay results reported in PMC13083723 (Patterns, 2026).

Test system: A549-ACE2 cells
Assay type: cell-based
Details: primary screen, concentration 10 (10 μM), 24 h, tamoxifen 10 μM = 100%

Compound: CCNC(=O)C[C@@H]1N=C(c2ccc(Cl)cc2)c2cc(OC)ccc2-n2c(C)nnc21 [I-BET-762, reference compound]
- result_KI: 0.2993 percent effect
